Data from ChEMBL document CHEMBL5528015, “Structure-based design of SARS-CoV-2 papain-like protease inhibitors” (Eur J Med Chem, 2024).

What was measured:
in vitro = details: mouse, liver microsomes
[1] = Metabolic stability in mouse liver microsomes assessed as intrinsic clearance at 1 uM measured upto 60 mins in presence of NADPH regenerating system by LC-MS/MS analysis; assay type: ADME, Microsome; details: read-out: CLH

For `Cc1ccc(O)cc1CN(C)[C@H](C)c1cccc2ccccc12`, the half-life at 1 h, 1 µM (in vitro) was 0.6 min.

Molecule `Cc1ccc(N)cc1C(=O)N[C@H](C)c1cccc2ccccc12` has a microsomal CLint at 1 µM [1] of 67.4 µL/min/mg.

`C[C@H](c1cccc2ccccc12)N(C)Cc1ccc2[nH]ncc2c1` showed a microsomal CLint at 1 µM [1] of 429 µL/min/mg and a half-life at 1 h, 1 µM (in vitro) of 3.2 min.
